“And” between values parts separate entries of the source, which are not always exact repeats. Equal values may be shown once.
Legend:
[1] = test system: Endothelin receptor type A (Rattus norvegicus); assay: Inhibition of Endothelin A receptor in pithed rats 1.5 hour after oral administration at 75 uM/kg
[2] = test system: Endothelin receptor type A (Rattus norvegicus); assay: Inhibition of Endothelin A receptor in pithed rats 3 hour after oral administration at 75 umol/kg
[3] = test system: Endothelin receptor type A (Rattus norvegicus); assay: Activity against Endothelin A receptor in pithed rats after intravenous administration at 25 umol/kg

SMILES: Cc1ccccc1C(Oc1cc(OCc2ccncc2)ccc1C#N)C(=O)O (stereo not drawn)
- Activity [1]: 9 µM/kg and 8 µM/kg
- Activity [2]: 13 µM/kg
- Activity [3]: 85 µM/kg and 49 µM/kg

SMILES: N#Cc1ccc(OCc2ccsc2)cc1OC(C(=O)O)c1ccccc1 (stereo not drawn)
- Activity [3]: 4.45 µM/kg

SMILES: Cc1ccccc1[C@H](Oc1cc(OCc2ccncc2)ccc1C#N)C(=O)O
- Activity [1]: 5.9 µM/kg
- Activity [2]: 7.7 µM/kg
- Activity [3]: 90 µM/kg

SMILES: Cc1ccccc1C(Oc1cc(OCc2ccsc2)ccc1C#N)C(=O)O (stereo not drawn)
- Activity [3]: 19 µM/kg

— ChEMBL document CHEMBL1132964, “Selective ET(A) antagonists. 5. Discovery and structure-activity relationships of phenoxyphenylacetic acid derivatives” (J Med Chem, 2000)
